These results are taken from PubChem BioAssay AID652067 (The Scripps Research Institute Molecular Screening Center, 2013).

The list shows a part of the results, in another mix than the full data. Active and inactive are the calls of the source.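 How the source made its calls: active means activation above the mean of all tested compounds plus 3 SD (cut at about 5.5% in these data); inactive means the rest.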

This experiment has as its system DAF-12 nuclear receptor (Haemonchus contortus). The experiment is described as follows: hcDAF-12 driven luciferase reporter activation – cell-based, luminescence, HEK293, lit1-tk-luc reporter, primary screen (AID 652067).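 Further: 100% = response to 3 µM Δ7-dafachronic acid high control.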 Particulars: HEK293 hcDAF-12 lit1-tk-luc reporter, at 6.8 µM, active compounds read high, 0% DMSO, 100% Δ7-dafachronic acid. Background: Reporter assays use an easily measured gene product as a stand-in for the process of interest.
Turning to `COc1cc(C2NCCC3(OCCO3)C2(C)C)cc(OC)c1OC` (configuration not stated), the activation is inactive: 1.87%.
In the case of `CCOP(=O)(Nc1cccc2ccccc12)OCC`, the activation was inactive: -2.11%.
In the case of `Cc1ccc(NCCc2c([N+](=O)[O-])cc([N+](=O)[O-])cc2[N+](=O)[O-])cc1`, the activation was inactive: -2.92%.
With `Nc1cccc2c([As](=O)(O)O)cccc12`, the activation is inactive: 0.02%.
For `CCCOP(=S)(Nc1nc(N)cc(=O)[nH]1)OCCC` the value was inactive: 0.41%; for `Nc1ccccc1[As](=O)(O)c1ccccc1`, inactive: -1.39%; for `O=C(O)COc1ccc([As](=O)(O)O)cc1[N+](=O)[O-]`, inactive: -2.26%.
For the molecule `CCOP1(=S)c2c(C)nn(CCC#N)c2N=C(c2ccccc2F)N1C` (configuration not stated), the activation was inactive: -1.35%.
Consider `O=P(Nc1nccs1)(Oc1ccccc1)Oc1ccccc1`, for which the activation is inactive: 0.9%.
On to `N#CCCN(C(=O)COC(=O)C(O)(c1ccccc1)c1ccccc1)c1ccc(F)cc1`, for which the activation was inactive: -1.08%.
Consider `CCOP1(=S)c2c(C)nn(CCC#N)c2N=C(c2ccc(F)cc2)N1C` (configuration not stated), for which the activation was inactive: -1.51%.
Regarding `CN(C(=O)Cc1ccccc1)[C@@H]1CC[C@]2(CCCO2)C[C@H]1N1CCCC1`, the activation is inactive: -0.78%.
Turning to `CN(C)C(=O)c1cc([N+](=O)[O-])cc2c1-c1c(cc([N+](=O)[O-])cc1[N+](=O)[O-])C2=O`, the activation was inactive: 2.58%.
For `O=[N+]([O-])c1ccc2c(c1)nnn2O` the value was inactive: -1.43%; for `CN(C(=O)Cc1ccc(Cl)c(Cl)c1)[C@H]1CC[C@@]2(CCCO2)C[C@@H]1N1CCCC1`, inactive: -0.71%; for `NC(=O)Nc1ccc([As](=O)(O)O)cc1`, inactive: 0.28%.
As for `CN(C)C1(CNC(=O)c2ccc(S(C)(=O)=O)cc2)CCCCC1`, the activation is inactive: -1.31%.
The value for `O=C(/C=C/c1ccccc1)OC1CN2CCC1CC2` (configuration not stated) was inactive: -1.46%; that for `CCCC1OP(=O)(Nc2ccccc2)OCC1CC` (configuration not stated) was inactive: 1.31%; that for `Cc1nn(-c2ccccc2)c2c1P(=O)(N1CCOCC1)N(C)C(c1ccccc1)=N2` (configuration not stated) was inactive: -1.32%.
On to `CC1CCC(C(C)C)C(OP(=O)(Nc2ccccn2)c2ccccc2)C1` (configuration not stated), for which the activation is inactive: -1.43%.
As to `Cc1ccc(C(=O)OC2CN3CCC2CC3)cc1` (configuration not stated), the activation was inactive: 1.77%.
With `Nc1cccc([As](=O)(O)c2ccccc2)c1`, the activation was inactive: -1.42%.
For the molecule `O=P1(Nc2ccc(Br)cn2)COc2ccccc2OC1`, the activation was inactive: 1.44%.
`NS(=O)(=O)c1cccc(NC(=O)COC(=O)C(O)(c2ccccc2)c2ccccc2)c1`: the activation is inactive: 0.19%.
With `Cc1ccc(OCC(=O)OC2CN3CCC2CC3)cc1` (configuration not stated), the activation is inactive: -1.73%.
Take `O=[As](O)(c1cccs1)c1cccs1`: the activation is inactive: -0.98%.
The value for `Cc1ccc(S(=O)(=O)N(CCCN)CCCc2c(C)nc(N)[nH]c2=O)cc1` was inactive: 0.24%; that for `O=P1(Nc2ncccn2)COc2ccccc2OC1` was inactive: -0.64%.
Regarding `O=P1(N(CCCl)CCCl)NCCC(C(F)(F)F)O1` (configuration not stated), the activation was inactive: -0.83%.
As for `Clc1n[nH]nc1-c1nn[nH][15n]1`, the activation was inactive: -1.27%.
Consider `CC(C)(C)C(=O)NC(Sc1ncccn1)C(Cl)(Cl)Cl` (configuration not stated), for which the activation is inactive: 1.41%.
On to `O=P1(Nc2ccccn2)COc2ccccc2OC1`, for which the activation was inactive: -1.45%.
As to `CCC1=CC2Cc3nc4ccc(Cl)cc4c(N)c3C(C1)C2` (configuration not stated), the activation is inactive: -2.67%.
As for `CCOP(=O)(NC(=NC(C)c1ccccc1)NC(C)c1ccccc1)OCC` (configuration not stated), the activation was inactive: 1.24%.
Regarding `CN(CCCl)Cc1cc(Cl)c(NC2=NCCN2)c(Cl)c1`, the activation is inactive: 1.68%.
Take `CCOP(=O)(Nc1ccc(C)cn1)OCC`: the activation was inactive: -0.31%.
For `CC(C)/C=N\N=C(\N)N[N+](=O)[O-]`, the activation is inactive: -1.06%.
For the molecule `CN(C(=O)Cc1ccc(Cl)c(Cl)c1)[C@@H]1CCCC[C@H]1N1CCCC1`, the activation was inactive: 3%.
With `CN(C(=O)Cc1ccc(Cl)c(Cl)c1)C1CCCC[C@@H]1N1CCCC1` (some centres not stated), the activation is inactive: 0.47%.
`CC1(CBr)Cn2c(nc3ccccc3c2=O)S1` (configuration not stated): the activation is inactive: -0.89%.
For `COc1ccccc1CNC(=O)COC(=O)C(O)(c1ccccc1)c1ccccc1`, the activation is inactive: -0.06%.
Regarding `O=C(O)C(=O)c1ccc(N(CCCl)CCCl)cc1`, the activation was inactive: -0.85%.
On to `O=C(COc1ccccc1)OC1CN2CCC1CC2` (configuration not stated), for which the activation was inactive: -1.07%.
In the case of `O=C(Nc1ccncc1[N+](=O)[O-])c1ccc([N+](=O)[O-])cc1[N+](=O)[O-]`, the activation is inactive: -2.53%.
As for `COP1(=S)c2c(C)nn(CCC#N)c2N=C(c2ccc(F)cc2)N1C` (configuration not stated), the activation is inactive: -1.62%.
For `COC(=O)C1(C)COP(=O)(N2CCCC2)OC1` (configuration not stated) the value was inactive: -0.49%.
For the molecule `CCC(C)N(CC(C)C)C(=S)SC(NC(C)=O)C(Cl)(Cl)Cl` (configuration not stated), the activation is inactive: -0.04%.
Consider `O=C(OC1CN2CCC1CC2)c1cccc([N+](=O)[O-])c1` (configuration not stated), for which the activation was inactive: 0.49%.
As for `CCOC(=O)c1ccc(NC(=O)C(C)(CCl)SC)cc1` (configuration not stated), the activation was inactive: 3.47%.
As for `COP(=O)(OC)N1CC1c1ccccc1` (configuration not stated), the activation was inactive: -1.59%.
As for `CCCCOc1ccc(C(=O)NCC2(N3CCCCC3)CCCCC2)cc1OC`, the activation is inactive: -0.76%.
Turning to `Cc1cc(SC(NC(=O)c2ccccc2)C(Cl)(Cl)Cl)nc(C(C)C)n1` (configuration not stated), the activation was inactive: -1.65%.
`CCOC(=O)Nc1ccc([As](=O)(O)O)c(O)c1`: the activation is inactive: 0.14%.
As to `O=C(O)C(O)c1ccc(N(CCCl)CCCl)cc1` (configuration not stated), the activation is inactive: -0.02%.
For `CC1CCNP(=O)(N(CCCl)CCCl)O1` (configuration not stated), the activation is inactive: 1.2%.
As to `O=P(Nc1ccccn1)(c1cccc2ccccc12)c1cccc2ccccc12`, the activation is inactive: -0.74%.
For the molecule `Cc1cc(SC(NC=O)C(Cl)(Cl)Cl)ncn1` (configuration not stated), the activation is inactive: -1.14%.
Consider `O=[N+]([O-])c1ccc(Nc2ccc(Oc3ccc([N+](=O)[O-])cc3[N+](=O)[O-])cc2)c([N+](=O)[O-])c1`, for which the activation was inactive: -0.53%.
Turning to `CCOC(=O)Nc1cccc([As](=O)(O)O)c1`, the activation is inactive: 0.45%.
For `[N-]=[N+]=NC1CCCCC1NC(=O)c1cc([N+](=O)[O-])cc([N+](=O)[O-])c1` (configuration not stated), the activation was inactive: -0.82%.
For `Cc1ccc(OP(=O)(Nc2ccc([N+](=O)[O-])cn2)Oc2ccc(C)cc2)cc1` the value was inactive: -2.9%.
On to `Cc1ccc2nc3c(c(C)c2c1)CC(C(Cl)Cl)S3` (configuration not stated), for which the activation was inactive: 3.29%.
In the case of `O=[As](O)(c1ccc(O)cc1)c1ccccc1O`, the activation is inactive: 1.03%.
Regarding `C[As](=O)(O)c1cccc(C(=O)O)c1`, the activation was inactive: 3.39%.
`COc1cc(C(=O)NCC2(N3CCOCC3)CCCCC2)ccc1OCC(C)C`: the activation is inactive: 1.04%.
For `O=[N+]([O-])c1ccc(-c2cc([N+](=O)[O-])c(O)c([N+](=O)[O-])c2)cc1`, the activation was inactive: 1.33%.
With `CCN(CC)C(=S)SC(NC=O)C(Cl)(Cl)Cl` (configuration not stated), the activation is inactive: -1.02%.
As to `O=C(OC1CN2CCC1CC2)c1cccc2[nH]cnc12` (configuration not stated), the activation was inactive: -0.08%.
Regarding `CC(C)NC(=O)NP(=O)(Oc1ccccc1)Oc1ccccc1`, the activation is inactive: -1.45%.
In the case of `ClCCSc1nnc(-c2cccnc2)o1`, the activation is inactive: -1.86%.
As for `CC(C)c1ccc(OP(=O)(Nc2ccccn2)Oc2ccccc2F)cc1` (configuration not stated), the activation is inactive: 1.32%.
The value for `COC(=O)C1(C)COP(=O)(N2CCCCCC2)OC1` (configuration not stated) was inactive: -2.33%; that for `O=P1(N(CCCl)CCCl)OCCCN1CCCl` (configuration not stated) was inactive: 1.69%.
Regarding `O=P1(N(CCCl)CCCl)Nc2ccccc2N1`, the activation was inactive: 4.98%.
For `COc1ccc2nc(NP(=O)(c3ccccc3)c3ccccc3)sc2c1` the value was inactive: -1.22%; for `COc1cc(I)ccc1[As](=O)(O)O`, inactive: -0.96%; for `Cc1c2c(nc3ccccc13)SC(C(Cl)Cl)C2` (configuration not stated), inactive: -1.23%.
With `O=C(OC1CN2CCC1CC2)C12CC3CC(CC(C3)C1)C2` (configuration not stated), the activation was inactive: 0.4%.
For the molecule `Cc1cc(=O)[nH]c(N[N+](=O)[O-])n1`, the activation is inactive: 0.11%.
For `O=[N+]([O-])c1cc(Oc2ccc([N+](=O)[O-])cc2C(F)(F)F)cc([N+](=O)[O-])c1`, the activation is inactive: -0.75%.
Consider `COc1ccc(N/C(=N/P(=O)(N2CCOCC2)N2CCOCC2)N2CCOCC2)cc1`, for which the activation is inactive: -1.24%.
